According to paper PMC12171682, “Saarvienin A—A Novel Glycopeptide with Potent Activity against Drug‐Resistant Bacteria” (Angewandte Chemie (International Ed. in English), 2025):
≈ marks a conversion by molar mass, not a printed value.

Key:
B. subtilis DSM 10 = details: broth microdilution, cation-adjusted Mueller-Hinton Broth II, ~4 × 10⁵ CFU/mL, 37 °C, 24 h, visible growth; mean of three independent biological replicates, each in technical triplicate
[1] = Affinity chromatography on Sepharose-bound d-Ala-d-Ala; details: Sepharose 4 Fast Flow-d-Ala-d-Ala affinity column, fermentation broth, vancomycin as control

For `CN[C@@]1(C)C[C@H](O[C@@H]2[C@H](O)C[C@H](O[C@H]3[C@H](C)O[C@@H](O[C@H]4[C@H](O[C@H]5[C@H](C)O[C@@H](Oc6ccc(C[C@@H](O)C(=O)N[C@H]7CNC(=O)NC[C@@H](C(=O)N[C@H](Cc8ccccc8)C(=O)O)NC(=O)[C@H]([C@H](C)c8c[nH]c9ccc(Cl)cc89)NC7=O)cc6)C[C@]5(C)N)O[C@@H](C)[C@H](O)[C@H]4O)C[C@]3(C)NC)O[C@H]2C)O[C@@H](C)[C@@H]1OC` [Saarvienin A, saarvienin A], the “MIC, B. subtilis DSM 10” value (B. subtilis DSM 10) was 0.125 µg/mL (≈ 0.0828 µM), the “binding to D‐alanyl‐D‐alanine peptide motif” value [1] was “did not show affinity” and the “binding to D‐alanyl‐D‐alanine peptide motif” value ([1]; listed as 1) was “does not bind”.
